Results taken from patent US20240140944A1, “NOVEL NAPHTHYRIDINONE DERIVATIVE HAVING INHIBITORY ACTIVITY AGAINST ECTONUCLEOTIDE PYROPHOSPHATASE-PHOSPHODIESTERASE AND USE THEREOF” (TXINNO BIOSCIENCE INC., priority 2020, published 2024).

System: interferon regulatory factor 3 (IRF3) in HCT116-Dual cells
Experiment: HCT116-Dual Cell Luciferase Assay (ISG54 promoter, IRF3 activity)
Conditions: ENPP1 inhibitor usually 10 μM plus cGAMP 10 μM, 48 hours, Lucia luciferase; tested form: hydrochloride
Text: HCT116-Dual™ cells express genes encoding luciferase secreted under the control of the interferon-stimulated gene 54 (ISG54) promoter along with five interferon-stimulated response elements. The HCT116-Dual™ cell line was used to measure and monitor the activity of interferon regulatory factor 3 (IRF3), which induces production of type I interferon and relates to downstream signaling, and Lucia secreted in the culture medium was used to generate luminescence in a luciferase reaction.
HCT116-Dual™ cells were cultured at 2×10^4 cells/well (93.4 μL) in a 96-well plate for one day in a DMEM medium containing 10% FBS and 25 mM HEPES (pH 7.2-7.5). The cells were treated with 3.3 μL of ENPP1 inhibitor (usually 10 μM) and then 3.3 μL of cGAMP (10 μM) to set the final volume to 100 μL (The final fraction of DMSO was 0.1%). The cells treated with ENPP1 inhibitor and cGAMP were cultured at 37° C. for 48 hours and 50 μL of Quanti-Luc reaction solution was added to 20 μL of cell culture medium to measure luciferase activity. The increase in interferon regulatory factor 3 (IRF3) by the compound compared to cGAMP was determined as fold.

For `CCNCc1ccc(-c2ccnc3[nH]c(=O)ccc23)c(F)c1`, the “Cellular activity: increase in IRF3 by the compound compared to cGAMP, as fold” value was “A (>2)”.
